Test results: US20090214498A1, “ANTIMICROBIAL PEPTIDES AND BACTERIAL STRAINS THAT PRODUCE THEM” (TEAGASC- NATIONAL DIARY PRODUCTS RESEARCH CENTRE, priority 2005, published 2009)

System: E. coli DPC6053
Experiment: 96-well plate assay (OD600), MIC
Assay type: cell-based, Escherichia coli
Conditions: strain not given
Description: Preliminary characterisation of the antibacterial activity of peptides and fractions synthesised involved measurement of growth inhibition in a 96-well plate assay (1, 10) and utilisation of an agar diffusion method (16,39). The 96-well plate assay involved the use of controls of each peptide fraction alone (Cecropin P1 and indolicidin), as well as controls without peptide fractions (growth control). A control without bacteria (sterility control) was also included. The plates were incubated for 6 h at 37° C. and culture growth monitored hourly. Minimum inhibitory concentrations (MIC's) were taken as the lowest concentration without visible growth, measured by recording the OD600, in a micro-titre plate reader. A well diffusion assay (16, 40) was used to detect antibacterial activity of purified and chemically synthesised peptides. These assays were performed in either Brain Heart Infusion (BHI), Luria Bertani (LB) or Nutrient agar (NA) seeded with 1 ml of an overnight culture of the indicator strains E. coli DPC6053, L. innocua DPC3306, E. sakazakii 5920 (ATCC12868) or E. sakazakii 8272 (NCTC8155) respectively. […] The sensitivity of a strain to the peptides was scored according to the diameter of the zone of inhibition surrounding the well. The experiments were performed in triplicate and mean zone size calculated. […]

With `CC[C@H](C)[C@H](N)C(=O)N[C@@H](CC(C)C)C(=O)N1CCC[C@H]1C(=O)N[C@@H](Cc1c[nH]c2ccccc12)C(=O)N[C@@H](CCCCN)C(=O)N[C@@H](Cc1c[nH]c2ccccc12)C(=O)N1CCC[C@H]1C(=O)N[C@@H](Cc1c[nH]c2ccccc12)C(=O)N[C@@H](Cc1c[nH]c2ccccc12)C(=O)N1CCC[C@H]1C(=O)N[C@@H](Cc1c[nH]c2ccccc12)C(=O)N[C@@H](CCCNC(=N)N)C(=O)N[C@@H](CCCNC(=N)N)C(N)=O` [indolicidin, Indolicidin] the “MIC of commercially available control peptides” value was 50 µM.
